Test results: PMC3866251, “The Sodium/Proline Transporter PutP of Helicobacter pylori” (PLoS ONE, 2013)

Tested on: O=C(O)[C@@H]1CCCN1
Assay: cells, lysate or membranes
Conditions: 50 mM NaCl (Na+ coupling ion); labelled compound

HpPutP (Helicobacter pylori P12)
Km: 1.8 ± 0.2 µM
